{"source": "paper PMC7660650", "about": "“Chemical Starting Matter for HNF4α Ligand Discovery and Chemogenomics” (International Journal of Molecular Sciences, 2020)", "key": {"[1]": {"biological_target": "T1, recombinant HNF4α LBD protein (Homo sapiens, UniProt P41235)", "T1 construct": "The LDB domain of HNF4α (aa. 148–377) subcloned into pNIC28-Bsa4; His6 (N); made in house; host or cells: E. coli Rosetta", "T1 sequence (P41235 148-377)": "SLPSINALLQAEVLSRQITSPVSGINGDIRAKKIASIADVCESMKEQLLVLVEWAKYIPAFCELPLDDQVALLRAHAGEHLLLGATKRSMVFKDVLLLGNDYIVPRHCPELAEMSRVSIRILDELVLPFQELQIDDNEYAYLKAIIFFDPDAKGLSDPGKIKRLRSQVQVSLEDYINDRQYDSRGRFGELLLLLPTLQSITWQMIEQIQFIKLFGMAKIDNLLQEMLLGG", "assay": "Isothermal titration calorimetry (ITC)", "type": "binding", "settings": "25 °C, protein 10–20 µM titrated with ligand 50–200 µM"}, "[2]": {"system": "Gal4–VP16", "assay": "Gal4-VP16 control experiment (reporter gene assay, HEK293T cells)", "type": "cell-based", "settings": "50 µM; mean ± SD"}, "[3]": {"biological_target": "T2, Gal4-HNF4α (human HNF4α LBD) (Homo sapiens, UniProt P41235)", "T2 sequence (P41235 142-377)": "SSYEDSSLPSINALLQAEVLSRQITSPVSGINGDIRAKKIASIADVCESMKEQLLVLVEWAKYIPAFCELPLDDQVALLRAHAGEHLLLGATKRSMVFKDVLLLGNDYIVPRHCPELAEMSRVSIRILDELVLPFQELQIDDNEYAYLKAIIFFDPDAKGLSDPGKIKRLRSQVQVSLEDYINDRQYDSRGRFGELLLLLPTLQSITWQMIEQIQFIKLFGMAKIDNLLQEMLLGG", "assay": "Hybrid Gal4-HNF4α reporter gene assay in transiently transfected HEK293T cells"}}, "note": "“Also recorded” adds a separate entry of the source."}
{"smiles": "O=C(Nc1ccccc1Cl)c1ccccc1O", "note": "[compound 4, Oc1ccccc1C(=O)Nc1ccccc1Cl]", "values": [{"measurement": "HNF4α LBD Binding (Kd)", "setting": "[1]", "result": "very weak HNF4α binding; also recorded: no/weak binding"}, {"measurement": "VP16 Control (fold activation of reporter activity)", "setting": "[2]", "result": "0.5 ± 0.2 (50 µM) fold activation"}, {"measurement": "EC50", "setting": "[3]", "result": 15, "unit": "µM"}, {"measurement": "Follow-up HNF4α (fold activation of reporter activity)", "setting": "[3]", "result": "4 ± 2 (50 µM) fold activation"}, {"measurement": "HNF4α Ligand Type", "setting": "[3]", "result": "Agonist"}, {"measurement": "HNF4α vs. VP16 (p, t-test)", "setting": "[3]", "result": "p = 0.0014 (**)"}, {"measurement": "Primary Screen (Fold Act., 50 µM)", "setting": "[3]", "result": 5.18, "unit": "fold activation"}]}
